## AlphaSeq binding of Ab-95 light chain variants to a spike HR2 peptide

From the AlphaSeq antibody data of Engelhart et al. 2022 (doi:10.1038/s41597-022-01779-4), copy in the FLAb collection.

The target is the same throughout: PDVDLGDISGINAS, from the HR2 region of SARS-CoV-2 spike.

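The parent was found by panning a naive human phage display library on the peptide. Library AAYL52 holds single substitutions and randomly drawn double and triple substitutions in the CDRs. The assay is AlphaSeq: two haploid yeast populations carry antibody and antigen on their surface. The frequency of each diploid, read from paired DNA barcodes, reflects how well the two displayed proteins bind. Scores were corrected for input abundance and mapped to Kd with protein pairs of known affinity run in the same pool. Mating was done three times.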

Ab-95 is the parent antibody, in scFv form: VH, then a 15-residue (Gly4Ser)3 linker, then VL. The heavy chain is unchanged in all variants.
VH: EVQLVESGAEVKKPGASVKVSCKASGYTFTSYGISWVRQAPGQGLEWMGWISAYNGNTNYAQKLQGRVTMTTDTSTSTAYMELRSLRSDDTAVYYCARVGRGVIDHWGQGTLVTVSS
VL: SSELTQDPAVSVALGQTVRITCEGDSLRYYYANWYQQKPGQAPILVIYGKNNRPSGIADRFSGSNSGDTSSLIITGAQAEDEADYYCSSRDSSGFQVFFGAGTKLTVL

Changes read parent residue, position, new residue, counted from the first residue of the VL shown.
Values are log10 of the apparent Kd in nM; lower means stronger binding.
Where no diploid with the target was found in that replicate, the entry reads "nd": below detection, most likely a poor binder, though not proof of it.

| # | changes | log10 Kd, replicates | empty controls |
|---|---|---|---|
| 1 | G24F S55M | 3.33 / nd / nd | 0/9 |
| 2 | D25A G49W D91T | nd / nd / nd | 1/9 (3.91) |
| 3 | N33H S92H V97M | nd / 4.69 / 4.06 | 2/9 (3.86) |
| 4 | A32P N33T G49L | 4.53 / nd / 4.44 | 4/9 (4.18) |
| 5 | D25Q A32S P54M | 2.74 / 2.63 / 2.76 | 3/9 (4.14) |
| 6 | R28S K50E D91H | 1.97 / 2.03 / 2.49 | 0/9 |
| 7 | A32F N51I R53E | nd / nd / nd | 1/9 (5.18) |
| 8 | R28S Y29L Y31H | 1.98 / 2.30 / 1.91 | 0/9 |
| 9 | D25Q A32D R53W | nd / 4.59 / nd | 3/9 (4.47) |
| 10 | R53C S89C S92L | 4.57 / 4.86 / nd | 3/9 (3.78) |
| 11 | S26P L27G Q96H | 3.66 / 5.11 / 3.25 | 5/9 (4.13) |
| 12 | G24F N33Y S92L | 3.33 / 3.80 / 3.62 | 5/9 (3.24) |
| 13 | E23Y L27W R90D | nd / 4.09 / nd | 3/9 (3.68) |
| 14 | E23V G24P A32F | 4.69 / 3.71 / nd | 4/9 (4.39) |
| 15 | L27K G49Y S93C | 5.34 / nd / nd | 1/9 (4.83) |
| 16 | S26L Y29I N52H | nd / nd / nd | 3/9 (4.62) |
| 17 | D25M R28D G49K | nd / nd / nd | 6/9 (4.26) |
| 18 | G24V N52A D91E | 4.10 / 4.99 / 4.35 | 3/9 (4.08) |
| 19 | Y30N P54T V97F | 2.00 / 1.82 / 1.50 | 3/9 (4.30) |
| 20 | S88Q S89Q F95P | nd / nd / nd | 1/9 (3.70) |
| 21 | G49I S92Q Q96H | nd / 4.42 / nd | 1/9 (3.67) |
| 22 | Y30R G49W Q96Y | 4.51 / 3.17 / 3.25 | 5/9 (3.90) |
| 23 | N33D K50E | 3.22 / 3.33 / 3.79 | 6/9 (3.70) |
| 24 | G24S F95C V97F | 3.24 / nd / nd | 2/9 (2.75) |
| 25 | D25K S26N R28L | 2.61 / 2.26 / 2.40 | 1/9 (4.29) |
| 26 | Y29M A32P S89H | 5.34 / 3.61 / 3.74 | 1/9 (3.50) |
| 27 | Y29C N52Y Q96C | 3.07 / 2.68 / 3.17 | 6/9 (3.98) |
| 28 | S93M F95M Q96C | 3.94 / nd / nd | 1/9 (4.55) |
| 29 | Y30T P54A S88Y | 2.54 / 2.75 / 3.35 | 0/9 |
| 30 | L27W Y31E | 2.88 / 2.34 / nd | 0/9 |
| 31 | Y31R R90L S93P | nd / 4.31 / 4.44 | 4/9 (3.84) |
| 32 | L27W N52F F98R | nd / nd / nd | 1/9 (3.28) |
| 33 | R28N N33C F95P | nd / nd / 3.91 | 1/9 (2.21) |
| 34 | D91I G94H | 2.29 / 2.18 / 2.06 | 2/9 (4.08) |
| 35 | Y29M G49E P54E | nd / 5.64 / 4.22 | 4/9 (4.05) |
| 36 | E23Q S88I | 3.02 / 2.71 / 2.47 | 5/9 (4.18) |
| 37 | D25H G94W F98R | 2.00 / 1.88 / 1.50 | 4/9 (4.24) |
| 38 | G24K Y30N N52G | nd / 3.85 / nd | 1/9 (3.71) |
| 39 | E23H L27Q | 2.20 / 1.79 / 1.90 | 7/9 (4.11) |
| 40 | R28G A32C G49D | 3.52 / 3.78 / 3.91 | 3/9 (3.29) |
| 41 | A32C Q96H | 2.89 / 2.85 / 2.32 | 0/9 |
| 42 | R28T S55D S89G | 2.04 / 1.99 / 1.55 | 4/9 (4.72) |
| 43 | E23M V97Y F98V | 3.21 / 3.69 / nd | 2/9 (3.86) |
| 44 | Y29N N51I P54D | 3.59 / 3.77 / 4.30 | 5/9 (3.79) |
| 45 | G24D Y29L K50D | 3.63 / 2.84 / 3.00 | 3/9 (3.80) |
| 46 | L27H R53H R90W | nd / 3.94 / nd | 3/9 (4.06) |
| 47 | A32G R90P | 2.10 / 2.56 / 1.73 | 2/9 (3.39) |

Parent in this assay: reference entry 2.31, copy in this library 2.25.
Empty control strains, which show no peptide, gave a signal in 28% of pairings with library AAYL52; the median was 3.91 and 95% of these signals were weaker than 2.90. No background was subtracted. Also given: how often the same scFv was detected with the empty control strains, with their mean in brackets.